This passage reports Ratio IC50 results from ChEMBL document CHEMBL1759897, “Discovery of non-peptide, small molecule antagonists of α9α10 nicotinic acetylcholine receptors as novel analgesics for the treatment of neuropathic and tonic inflammatory pain” (Bioorg Med Chem Lett, 2011).

The nature of the experiment: Ratio of IC50 for alpha9/alpha10 nAChR to IC50 for alpha7 nAChR expressed in Xenopus oocyte.

As to `c1ccc2c[n+](CCCCCc3cc(CCCCC[n+]4ccc5ccccc5c4)cc(CCCCC[n+]4ccc5ccccc5c4)c3)ccc2c1`, the Ratio IC50 stood at 35.
For the molecule `c1ccc(-c2ccc[n+](CCCCCc3cc(CCCCC[n+]4cccc(-c5ccccc5)c4)cc(CCCCC[n+]4cccc(-c5ccccc5)c4)c3)c2)cc1`, the Ratio IC50 was 25.
